Measurements taken from patent US6515112B2, “Cores for technetium radiopharmaceuticals” (Amersham PLC, priority 1989, dated 2003).

Assay: Animal biodistribution studies of 99mTc complexes in rats
Format: in vivo, Male Sprague Dawley rats
Settings: i.v. tail vein, Time P. I. 2
Experimental: Complex Preparation: 20-25 μl of hydrazine was added to 2 cm^3 of absolute ethanol, then ^99mTcO4^−(0.2-3.0 GBq) and 10 mg of ligand were added to the solution. This mixture was heated to 120° C. for 30-60 minutes, cooled to room temperature and analyzed. For biodistribution studies the total volume of he preparation was made up to 5 cm^3 by the addition of sterile saline solution.
Animal Biodistribution Studies: Six Male Sprague Dawley rats were infected while under light ether anaesthesia with 0.1 cm^3 of preparation (i.v., tail vein) and half were sacrificed by cervical dislocation while under ether anaesthesia at the appropriate time interval post-infection and dissected. Organs were weighed and their activities measured in an ionisation chamber. For the purposes of calculations blood was assumed to constitute 5.8% of the total body weight, muscle was assumed to be 43% and the lungs were assumed to weigh 1 g.

SMILES: CP(C)COCP(C)C (99mTc complex, metal not drawn) [PL28]
- S. I.: 13.2
